Common to all, as to type: cell-based
Assay [1] concerns the target DUOX2/A2 (Homo sapiens, UniProt Q9NRD8). Kind of assay: DUOX2-dependent H2O2 production, Amplex Red assay in reconstituted HEK293 cells. The settings on record: 3-5 independent experiments; read-out: IC50 ± SE, DUOX2/A2 HEK 293. The method, then:
(§1) To evaluate compound specificity, a luminescence assay for O2.^− was used with HEK293 cells expressing all components of the NOX1 complex; fully differentiated HL-60 cells expressing active NOX2; and UACC257 melanoma cells that exclusively express active NOX5. H2O2 was measured by Amplex Red assay to determine NOX4 or Duox2 activity in fully reconstituted HEK293 cells. The method conducted was similar to the approach disclosed in Jaquet et al in Brit J. Pharmacology 164: 507-520, 2011 using somewhat different cell models for the NOX isoforms and we studied Duox2 in our own cell model.

By UniProt entry, the sequences of proteins in these tests, tags left out. Residues count along the entry.
UniProt Q9NRD8, 26-1548: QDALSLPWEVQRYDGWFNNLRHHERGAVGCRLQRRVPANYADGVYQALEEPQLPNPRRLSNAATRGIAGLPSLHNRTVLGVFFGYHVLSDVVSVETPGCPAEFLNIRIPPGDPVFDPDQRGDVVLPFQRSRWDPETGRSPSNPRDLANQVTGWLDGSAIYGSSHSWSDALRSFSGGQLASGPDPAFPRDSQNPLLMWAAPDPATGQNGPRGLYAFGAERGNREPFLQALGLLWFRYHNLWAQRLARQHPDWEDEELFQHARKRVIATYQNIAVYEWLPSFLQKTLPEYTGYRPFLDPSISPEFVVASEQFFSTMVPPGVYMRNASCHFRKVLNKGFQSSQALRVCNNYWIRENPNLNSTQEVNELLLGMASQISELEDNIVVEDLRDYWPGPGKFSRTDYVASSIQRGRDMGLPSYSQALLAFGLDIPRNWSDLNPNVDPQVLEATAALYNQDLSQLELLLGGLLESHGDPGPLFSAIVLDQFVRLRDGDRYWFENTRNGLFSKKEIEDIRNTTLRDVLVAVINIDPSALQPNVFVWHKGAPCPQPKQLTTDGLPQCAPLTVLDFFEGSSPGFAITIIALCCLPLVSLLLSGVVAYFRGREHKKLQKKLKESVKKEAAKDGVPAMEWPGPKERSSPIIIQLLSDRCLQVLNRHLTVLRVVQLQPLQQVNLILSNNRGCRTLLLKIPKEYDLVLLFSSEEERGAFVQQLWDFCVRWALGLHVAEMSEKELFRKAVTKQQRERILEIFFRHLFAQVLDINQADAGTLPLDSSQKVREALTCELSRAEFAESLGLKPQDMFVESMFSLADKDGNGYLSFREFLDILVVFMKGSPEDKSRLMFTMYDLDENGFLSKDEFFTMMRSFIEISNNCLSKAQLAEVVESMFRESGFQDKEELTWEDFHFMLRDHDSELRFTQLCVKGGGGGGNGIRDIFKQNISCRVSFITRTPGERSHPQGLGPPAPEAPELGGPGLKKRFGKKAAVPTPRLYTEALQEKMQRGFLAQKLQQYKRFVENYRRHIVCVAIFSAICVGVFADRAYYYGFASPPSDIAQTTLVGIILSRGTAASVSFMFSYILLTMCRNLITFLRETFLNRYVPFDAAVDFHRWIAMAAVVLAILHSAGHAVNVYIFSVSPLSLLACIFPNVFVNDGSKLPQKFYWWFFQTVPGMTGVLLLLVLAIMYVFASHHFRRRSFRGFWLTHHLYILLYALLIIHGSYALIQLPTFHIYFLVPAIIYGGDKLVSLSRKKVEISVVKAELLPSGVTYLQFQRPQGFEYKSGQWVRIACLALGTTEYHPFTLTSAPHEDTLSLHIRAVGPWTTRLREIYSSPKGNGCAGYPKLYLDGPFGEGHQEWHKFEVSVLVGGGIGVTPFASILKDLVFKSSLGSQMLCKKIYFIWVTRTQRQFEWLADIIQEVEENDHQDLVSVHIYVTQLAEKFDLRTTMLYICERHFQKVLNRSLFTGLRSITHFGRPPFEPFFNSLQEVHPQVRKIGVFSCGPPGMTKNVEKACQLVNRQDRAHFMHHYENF

Assay [2] deals with T1, NOX5 (Homo sapiens, UniProt Q96PH1).
T1 sequence (Q96PH1 1-765): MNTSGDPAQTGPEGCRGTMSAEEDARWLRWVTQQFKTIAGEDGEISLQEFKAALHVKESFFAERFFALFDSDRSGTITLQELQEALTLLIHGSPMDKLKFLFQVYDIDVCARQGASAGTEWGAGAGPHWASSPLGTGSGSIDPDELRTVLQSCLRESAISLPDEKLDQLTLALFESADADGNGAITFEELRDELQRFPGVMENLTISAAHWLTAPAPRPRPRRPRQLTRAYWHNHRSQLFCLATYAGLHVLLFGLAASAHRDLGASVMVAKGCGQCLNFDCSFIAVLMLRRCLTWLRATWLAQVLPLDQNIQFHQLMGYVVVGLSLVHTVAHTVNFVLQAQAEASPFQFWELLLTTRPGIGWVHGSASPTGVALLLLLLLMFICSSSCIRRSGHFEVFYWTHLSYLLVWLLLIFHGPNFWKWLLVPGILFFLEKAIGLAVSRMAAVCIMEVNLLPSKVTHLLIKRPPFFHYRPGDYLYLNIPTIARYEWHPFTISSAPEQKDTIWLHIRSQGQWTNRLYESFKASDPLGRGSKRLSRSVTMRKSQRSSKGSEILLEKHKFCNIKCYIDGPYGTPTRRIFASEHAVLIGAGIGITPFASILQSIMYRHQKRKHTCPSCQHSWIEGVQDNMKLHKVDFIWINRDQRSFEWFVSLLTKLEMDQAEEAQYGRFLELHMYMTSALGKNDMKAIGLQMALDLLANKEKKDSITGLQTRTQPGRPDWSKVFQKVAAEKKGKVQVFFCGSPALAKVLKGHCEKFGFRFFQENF
Kind of assay: NOX5-dependent ROS production, luminescence assay for O2.- in UACC257 melanoma cells. The settings on record: exposure for 30 min.

For assay [3], the target named is T2, NOX1/A1/O1 (Homo sapiens, UniProt Q9Y5S8).
T2 construct: expressed in transfected cells; host or cells: HEK293
Kind of assay: NOX1-dependent ROS production, luminescence assay for O2.- in HEK293 cells expressing the NOX1 complex. The settings on record: exposure for 30 min.

Assay [4] addresses T3, NOX4 (Homo sapiens, UniProt Q9NPH5).
T3 construct: expressed in transfected cells; host or cells: HEK293
T3 sequence (Q9NPH5 1-578): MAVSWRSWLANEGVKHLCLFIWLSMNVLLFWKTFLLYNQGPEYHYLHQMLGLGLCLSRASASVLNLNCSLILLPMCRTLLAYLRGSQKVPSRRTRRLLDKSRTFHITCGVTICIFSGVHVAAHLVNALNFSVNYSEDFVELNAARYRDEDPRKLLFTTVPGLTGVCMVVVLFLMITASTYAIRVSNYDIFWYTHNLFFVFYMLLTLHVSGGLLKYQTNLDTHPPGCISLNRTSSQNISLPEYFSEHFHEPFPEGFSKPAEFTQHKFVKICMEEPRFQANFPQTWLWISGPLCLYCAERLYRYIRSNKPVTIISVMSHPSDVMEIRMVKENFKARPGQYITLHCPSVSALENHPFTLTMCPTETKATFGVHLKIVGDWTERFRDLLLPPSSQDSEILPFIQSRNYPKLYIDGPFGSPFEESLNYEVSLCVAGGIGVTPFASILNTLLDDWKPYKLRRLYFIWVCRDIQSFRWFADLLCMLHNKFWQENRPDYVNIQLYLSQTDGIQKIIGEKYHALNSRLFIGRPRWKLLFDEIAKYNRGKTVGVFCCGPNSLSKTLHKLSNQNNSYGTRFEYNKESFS
T3 sequence (P13498 2-195 partner limits assumed): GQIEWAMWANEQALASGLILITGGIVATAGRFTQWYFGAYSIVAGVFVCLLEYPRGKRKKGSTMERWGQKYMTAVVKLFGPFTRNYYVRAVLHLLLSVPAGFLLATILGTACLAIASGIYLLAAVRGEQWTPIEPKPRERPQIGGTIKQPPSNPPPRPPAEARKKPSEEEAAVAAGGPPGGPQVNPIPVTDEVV
The assay is described as follows: NOX4-dependent H2O2 production, Amplex Red assay in reconstituted HEK293 cells. The settings on record: exposure for 30 min. On the procedure: as §1

Molecules are shown by their SMILES.

Consider `c1ccc2c(c1)[I+]c1ccccc1-2` [Compound 13, Diphenyleneiodonium chloride, reference compound], for which the IC50 came to 6490 ± 1630 nM in assay [1]; 42 ± 27 nM in assay [2] (3-5 independent experiments, read-out: IC50 ± SE, NOX5 UACC-257); 233 ± 122 nM in assay [3] (3-5 independent experiments, read-out: IC50 ± SE, NOX1/A1/O1 HEK 293); 880 ± 214 nM in assay [4] (3-5 independent experiments, read-out: IC50 ± SE, NOX4 HEK293). In addition, the “IC50 toward NOX5” value in assay [2] is listed as “low nM”. Also, the “IC50 toward NOX1” value in assay [3] was “low nM”. Further, in assay [4], the “IC50 toward NOX4” value is “low nM”.

Values taken from patent US10131659B2, “Iodonium analogs as inhibitors of NADPH oxidases and other flavin dehydrogenases; formulations thereof; and uses thereof” (priority 2014, dated 2018).
